{"source": "paper PMC5047689", "about": "(Disease Models & Mechanisms, 2016)", "test_system": "ALK (phospho-ALK-Y1278) and downstream signaling", "assay": "Immunoblotting of ALK signaling in CLB-BAR and CLB-GE neuroblastoma cells", "assay_type": "cell-based, human", "conditions": "6 h treatment, western blot", "procedure": "Fig. 1. […] Treatment of neuroblastoma cells with the ALK TKIs crizotinib and PF-06463922. (A,B) Proliferation was assessed over 5 days using the resazurin cell proliferation assay in the following neuroblastoma cell lines: CLB-BAR, CLB-GE, CLB-PE, SK-N-AS and IMR32. Neuroblastoma cell line characteristics: CLB-GE – MYCN amplified, 1p deletion, 17q gain, amplified ALK amplicon containing an ALK^F1174V mutation; CLB-BAR – amplified MYCN/ALK, Δexon 4-11, 1p deletion, 17q gain; IMR32 – MYCN, wt sequence but exons 2-4 are amplified, 1p deletion, 17q gain; CLB-PE – 1p gain, amplified MYCN, 17q gain; SK-N-AS – IGF-1 overexpressing, 1p deletion, 1q gain, 17q gain, 17 deletion. […] Cells were harvested and pre-cleared cell lysates were analyzed on SDS PAGE followed by western blotting for ALK, phospho-ALK-Y1278, phospho-ERK5, pan-ERK5 phospho-ERK1/2 and pan-ERK. Actin was employed as a loading control. Protein band intensities were quantified by Image Studio Lite 3.1 and normalized to untreated samples.\nThe neuroblastoma CLB cell lines were from Valerie Combaret (Centre Leon Berard, France) under material transfer agreement and all cell lines were authenticated during the investigation with Affymetrix Cytoscan High Density array and compared with earlier cytoscans ([Schleiermacher et al., 2003]). […]"}
{"smiles": "C[C@@H](Oc1cc(-c2cnn(C3CCNCC3)c2)cnc1N)c1c(Cl)ccc(F)c1Cl", "note": "[crizotinib]", "values": [{"measurement": "ALK Y1278 phosphorylation", "result": "loss of tyrosine 1278 (Y1278) phosphorylation on ALK"}, {"measurement": "downstream signaling, pERK1/2 and pERK5", "result": "inhibition of downstream signaling"}]}
